The text below walks through data of US9637472B2, “Substituted 6,5-fused bicyclic heteroaryl compounds” (Epizyme, Inc., priority 2011, dated 2017).

Sequences of proteins named here, by UniProt entry; tags and fusion partners are left off. A line that says so, or that is headed by a name, gives the form on record, which may keep a tag or linker.
UniProt Q15910, with tags, fused parts or gaps limits assumed: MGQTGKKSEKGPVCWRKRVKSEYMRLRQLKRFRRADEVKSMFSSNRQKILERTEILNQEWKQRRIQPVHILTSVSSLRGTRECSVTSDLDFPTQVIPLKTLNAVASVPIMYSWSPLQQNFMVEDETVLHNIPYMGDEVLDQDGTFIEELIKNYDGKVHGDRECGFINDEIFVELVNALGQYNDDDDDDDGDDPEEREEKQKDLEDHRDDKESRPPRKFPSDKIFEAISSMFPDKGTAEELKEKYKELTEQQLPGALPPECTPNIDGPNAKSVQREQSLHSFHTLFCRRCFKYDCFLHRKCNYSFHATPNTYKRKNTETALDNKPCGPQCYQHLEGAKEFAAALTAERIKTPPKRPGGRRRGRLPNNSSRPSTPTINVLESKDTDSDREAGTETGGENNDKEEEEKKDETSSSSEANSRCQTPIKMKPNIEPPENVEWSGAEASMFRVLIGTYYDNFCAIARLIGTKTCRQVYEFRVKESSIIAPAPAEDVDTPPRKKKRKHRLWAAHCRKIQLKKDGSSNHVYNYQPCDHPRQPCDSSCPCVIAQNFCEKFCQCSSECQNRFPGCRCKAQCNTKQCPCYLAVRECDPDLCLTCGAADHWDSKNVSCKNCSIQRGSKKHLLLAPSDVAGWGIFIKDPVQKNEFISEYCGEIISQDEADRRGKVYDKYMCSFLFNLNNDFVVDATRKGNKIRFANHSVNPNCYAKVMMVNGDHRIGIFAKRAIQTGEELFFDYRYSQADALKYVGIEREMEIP
UniProt O75530, whole entry partner: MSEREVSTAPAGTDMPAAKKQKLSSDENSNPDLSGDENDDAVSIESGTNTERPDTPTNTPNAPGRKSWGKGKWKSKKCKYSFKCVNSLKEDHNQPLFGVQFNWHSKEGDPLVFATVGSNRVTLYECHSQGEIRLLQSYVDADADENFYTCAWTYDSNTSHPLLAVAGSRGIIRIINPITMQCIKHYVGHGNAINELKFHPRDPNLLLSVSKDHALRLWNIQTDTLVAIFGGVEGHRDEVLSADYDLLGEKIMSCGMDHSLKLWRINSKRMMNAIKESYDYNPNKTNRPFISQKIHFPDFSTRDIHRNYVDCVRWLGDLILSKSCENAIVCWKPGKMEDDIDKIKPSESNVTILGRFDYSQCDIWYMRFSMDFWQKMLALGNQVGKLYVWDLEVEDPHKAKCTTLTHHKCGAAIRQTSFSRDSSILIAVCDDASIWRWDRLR
UniProt Q15022, whole entry partner: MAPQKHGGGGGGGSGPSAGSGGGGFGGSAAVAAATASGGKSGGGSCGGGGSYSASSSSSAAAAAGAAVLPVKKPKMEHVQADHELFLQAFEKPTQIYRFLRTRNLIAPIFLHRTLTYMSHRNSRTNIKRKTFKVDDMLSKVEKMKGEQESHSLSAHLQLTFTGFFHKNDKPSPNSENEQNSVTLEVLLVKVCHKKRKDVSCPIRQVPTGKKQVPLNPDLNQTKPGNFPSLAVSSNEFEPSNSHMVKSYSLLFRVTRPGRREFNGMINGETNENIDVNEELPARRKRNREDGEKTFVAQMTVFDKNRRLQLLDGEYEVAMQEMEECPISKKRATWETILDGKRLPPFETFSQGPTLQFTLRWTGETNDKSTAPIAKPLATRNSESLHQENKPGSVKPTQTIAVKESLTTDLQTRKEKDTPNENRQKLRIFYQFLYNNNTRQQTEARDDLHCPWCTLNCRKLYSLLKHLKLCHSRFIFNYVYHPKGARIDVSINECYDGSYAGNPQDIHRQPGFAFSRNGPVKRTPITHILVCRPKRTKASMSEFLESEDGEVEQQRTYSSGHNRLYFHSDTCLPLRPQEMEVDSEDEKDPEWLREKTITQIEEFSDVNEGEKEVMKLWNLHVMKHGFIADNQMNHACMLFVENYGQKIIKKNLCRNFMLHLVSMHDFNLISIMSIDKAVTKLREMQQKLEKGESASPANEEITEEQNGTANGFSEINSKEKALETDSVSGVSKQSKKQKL
UniProt Q09028, whole entry partner: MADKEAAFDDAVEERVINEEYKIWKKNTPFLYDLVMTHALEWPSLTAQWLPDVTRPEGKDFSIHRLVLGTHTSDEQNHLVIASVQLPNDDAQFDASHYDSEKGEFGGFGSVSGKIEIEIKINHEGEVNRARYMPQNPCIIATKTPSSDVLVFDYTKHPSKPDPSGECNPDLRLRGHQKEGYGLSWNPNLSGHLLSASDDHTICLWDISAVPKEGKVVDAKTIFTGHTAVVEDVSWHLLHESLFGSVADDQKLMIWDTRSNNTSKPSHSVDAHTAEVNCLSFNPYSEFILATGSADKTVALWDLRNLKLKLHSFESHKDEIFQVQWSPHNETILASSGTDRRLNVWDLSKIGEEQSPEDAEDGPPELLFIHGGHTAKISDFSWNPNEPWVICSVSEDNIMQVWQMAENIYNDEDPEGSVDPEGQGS

In the test the target is EZH2 (Homo sapiens (Human), UniProt Q15910). Briefly: PRC2 enzyme assay on peptide substrates. In kind it is biochemical. The settings on record: read-out: EZH2 IC50; PRC2 enzyme assays on peptide substrates; 4 nM enzyme, 30 min preincubation at 25° C.

In general, IC50 refers to the point on the concentration scale where inhibition reaches its midpoint. Take `COc1cccc(-c2cc(C(=O)NCc3c(C)cc(C)[nH]c3=O)c3cnn(C(C)C)c3n2)c1`: the IC50 is 10 to 50 µM.

With `Cc1cc(C)c(CNC(=O)c2cc(-c3ccc4c(c3)OCCO4)nc3c2cnn3C(C)(C)C)c(=O)[nH]1`, the IC50 fell in the range of 10 to 50 µM.

Regarding `Cc1cc(C(=O)NCc2c(C)cc(C)[nH]c2=O)c2cnn(C(C)C)c2n1`, the IC50 lay in the range of 3 to 10 µM.

Turning to `CC(=O)Nc1cccc(-c2cc(C(=O)NCc3c(C)cc(C)[nH]c3=O)c3cnn(C(C)C)c3n2)c1`, the IC50 fell in the range of 0.3 to 1 µM.

On to `Cc1cc(C)c(CNC(=O)c2cc(-c3ccc4c(c3)OCO4)nc3c2cnn3C(C)C)c(=O)[nH]1`, for which the IC50 fell in the range of 0.3 to 1 µM.

For the compound `Cc1cc(C)c(CNC(=O)c2cc(-c3cccc(CO)c3)nc3c2cnn3C(C)C)c(=O)[nH]1`, the IC50 was 10 to 50 µM.

With `Cc1cc(C)c(CNC(=O)c2cc(-c3ccc4c(c3)OCCO4)nc3c2cnn3C(C)C)c(=O)[nH]1`, the IC50 was 0.3 to 1 µM.

Consider `CCOc1ccc(-c2cc(C(=O)NCc3c(C)cc(C)[nH]c3=O)c3cnn(C(C)C)c3n2)cc1`, for which the IC50 was 10 to 50 µM.

For the compound `Cc1cc(C)c(CNC(=O)c2cc(-c3ccc(S(C)(=O)=O)cc3)nc3c2cnn3C(C)C)c(=O)[nH]1`, the IC50 lay within 0.3 to 1 µM.

Take `Cc1ccc(CNC(=O)c2cc(-c3ccc4c(c3)OCCO4)nc3c2cnn3C(C)C)c(=O)[nH]1`: the IC50 is 10 to 50 µM.

As to `Cc1cc(C)c(CNC(=O)c2cc(-c3ccc(F)cc3)nc3c2cnn3C(C)C)c(=O)[nH]1`, the IC50 fell in the range of 10 to 50 µM.

With `CC(=O)c1cccc(-c2cc(C(=O)NCc3c(C)cc(C)[nH]c3=O)c3cnn(C(C)C)c3n2)c1`, the IC50 lay in the range of 10 to 50 µM.

For the compound `CC(=O)c1ccc(-c2cc(C(=O)NCc3c(C)cc(C)[nH]c3=O)c3cnn(C(C)C)c3n2)cc1`, the IC50 lay within 10 to 50 µM.

As to `Cc1cc(C)c(CNC(=O)c2cc(-c3ccc(C(N)=O)cc3)nc3c2cnn3C(C)C)c(=O)[nH]1`, the IC50 lay in the range of 0.3 to 1 µM.

Consider `Cc1cc(C)c(CNC(=O)c2cc(-c3cccc(N(C)C)c3)nc3c2cnn3C(C)C)c(=O)[nH]1`, for which the IC50 was 10 to 50 µM.

With `Cc1cc(C)c(CNC(=O)c2cc(-c3ccc(C(C)(C)C)cc3)nc3c2cnn3C(C)C)c(=O)[nH]1`, the half-maximal inhibitory concentration (IC50) was in the range of 3 to 10 µM.

Regarding `Cc1cc(C)c(CNC(=O)c2cc(-c3ccc(OC(C)C)cc3)nc3c2cnn3C(C)C)c(=O)[nH]1`, the IC50 lay within 10 to 50 µM.

Regarding `Cc1cc(C)c(CNC(=O)c2cc(-c3ccccc3C)nc3c2cnn3C(C)C)c(=O)[nH]1`, the half-maximal inhibitory concentration (IC50) lay within 3 to 10 µM.

Consider `COc1ccc(-c2cc(C(=O)NCc3c(C)cc(C)[nH]c3=O)c3cnn(C(C)C)c3n2)cc1`, for which the IC50 was 10 to 50 µM.

`Cc1cc(C)c(CNC(=O)c2cc(-c3ccc(C#N)cc3)nc3c2cnn3C(C)C)c(=O)[nH]1`: the IC50 lay within 0.3 to 1 µM.
